Measured values: patent US20080076183A1, “Polysaccharide-peptide conjugates for use as thrombin substrates” (Dade Behring Marburg GmbH, priority 2006, published 2008)

Molecular target: thrombin (Homo sapiens, UniProt P00734)
Experiment: Kinetic properties of thrombin substrates (Km, Vmax, Kcat, Kcat/Km)
Conditions: for Km: Michaelis constant, substrate affinity to thrombin; for Vmax: maximum reaction rate; for Kcat: turnover number

Substance | Km | Vmax | Kcat
Dextran-D-CHG-Gly-Arg-pNA | 600 µM | 60 U | 176 s⁻¹
Dextran-β-Ala-Gly-Arg-pNA | 1000 to 1400 µM | 19.5 U | 21 s⁻¹
Dextran-D-CHG-Ala-Arg-pNA | 600 µM | 57 U | 167 s⁻¹
